Assay results reported in PMC5578695.

The chains behind the UniProt entries cited, without tags or fusion partners. Where a name states a change or a piece, a line headed by the entry shows the natural chain unless it says otherwise.
UniProt P38920: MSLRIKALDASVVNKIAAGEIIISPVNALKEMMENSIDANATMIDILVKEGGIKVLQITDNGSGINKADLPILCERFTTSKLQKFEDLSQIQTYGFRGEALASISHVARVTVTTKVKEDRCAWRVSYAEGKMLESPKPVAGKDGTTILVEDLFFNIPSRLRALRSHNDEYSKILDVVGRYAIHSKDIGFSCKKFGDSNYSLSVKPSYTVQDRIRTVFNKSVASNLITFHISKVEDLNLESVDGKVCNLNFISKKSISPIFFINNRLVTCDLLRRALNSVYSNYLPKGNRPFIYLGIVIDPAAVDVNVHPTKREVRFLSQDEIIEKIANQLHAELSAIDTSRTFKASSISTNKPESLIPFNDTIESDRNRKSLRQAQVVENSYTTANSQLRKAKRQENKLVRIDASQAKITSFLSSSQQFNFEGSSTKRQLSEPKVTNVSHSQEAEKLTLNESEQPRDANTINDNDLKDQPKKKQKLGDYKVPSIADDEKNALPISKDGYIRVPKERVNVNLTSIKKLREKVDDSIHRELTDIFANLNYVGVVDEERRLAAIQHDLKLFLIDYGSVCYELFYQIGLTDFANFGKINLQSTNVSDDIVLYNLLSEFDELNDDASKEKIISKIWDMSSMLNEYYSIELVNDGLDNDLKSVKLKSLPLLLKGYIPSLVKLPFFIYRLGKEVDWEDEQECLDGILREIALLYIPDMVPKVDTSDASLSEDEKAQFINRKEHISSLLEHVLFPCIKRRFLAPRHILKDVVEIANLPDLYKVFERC

Molecular target: lexA-Mlh1 (S. cerevisiae) (UniProt P38920)
Assay: two-hybrid; yeast strain L40; lexA-Mlh1 and Gal4 activation domain-Mlh3 (amino acids 481-715) or mutant derivatives; LACZ reporter measured by the ONPG assay for β-galactosidase activity (Miller units); at least three independent assays

Row | β-gal units in the two-hybrid assay | Miller units of β-galactosidase activity in the two-hybrid assay (Miller units of β-galactosidase activity) | Substance
1 | 2.6 β-gal units | – | Gal4-Mlh3 (amino acids 481-715) (from UniProt Q12083 481-715) (domain or fragment)
2 | 3.3 β-gal units | – | Gal4-mlh3-45 (amino acids 481-715) (from UniProt Q12083 481-715) (domain or fragment)
3 | – | 14.2 | Gal4-mlh3-60 (amino acids 481-715 with the last 11 residues of Pms1) (from UniProt Q12083 481-715) (domain or fragment)
